Amino acid sequences for entries named in this document (tags omitted).
UniProt P04049, whole entry Y340E/Y341E: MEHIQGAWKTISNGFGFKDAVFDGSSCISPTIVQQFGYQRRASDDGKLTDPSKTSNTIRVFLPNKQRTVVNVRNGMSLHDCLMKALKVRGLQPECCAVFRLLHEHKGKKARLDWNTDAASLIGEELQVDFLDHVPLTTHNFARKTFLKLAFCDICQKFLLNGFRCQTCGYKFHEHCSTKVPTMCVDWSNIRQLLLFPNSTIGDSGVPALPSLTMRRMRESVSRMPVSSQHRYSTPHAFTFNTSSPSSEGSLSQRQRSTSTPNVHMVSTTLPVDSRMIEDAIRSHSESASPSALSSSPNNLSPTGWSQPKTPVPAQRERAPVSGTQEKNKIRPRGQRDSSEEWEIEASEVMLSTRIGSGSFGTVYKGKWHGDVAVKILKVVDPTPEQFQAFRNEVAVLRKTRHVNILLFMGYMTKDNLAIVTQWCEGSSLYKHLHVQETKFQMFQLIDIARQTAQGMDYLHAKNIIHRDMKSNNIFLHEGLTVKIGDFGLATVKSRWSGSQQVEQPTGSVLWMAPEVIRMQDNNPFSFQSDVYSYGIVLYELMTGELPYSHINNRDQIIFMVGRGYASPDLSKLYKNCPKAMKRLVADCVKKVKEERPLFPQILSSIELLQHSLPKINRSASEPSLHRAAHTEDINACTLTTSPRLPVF

In the first assay the target is C-Raf FL (full-length C-Raf protein, Y340E and Y341E activating mutations) (Homo sapiens (Human), UniProt P04049, Y340E/Y341E). It is filed as biochemical. The settings on record: AlphaScreen, 60 min pre-incubation, 1 hour reaction; read-out: c-Raf FL IC-50. A general note: In Alpha technology, singlet oxygen from a donor bead excites a nearby acceptor bead.
In the case of `CCC(F)(F)c1cc(C(=O)Nc2ccc(C)c(-c3cc(N4CCOCC4)n(C)c(=O)c3)c2)ccn1` [Example 475, 2-(1,1-difluoropropyl)-N-(4-methyl-3-(1-methyl-6-morpholino-2-oxo-1,2-dihydropyridin-4-yl)phenyl)isonicotinamide], the IC50 stood at 0.1 nM.

The assay is the same for the next values; noted with them: AlphaScreen, 60 min pre-incubation, reaction 1 hour at room temperature; read-out: c-Raf FL IC-50.
For `Cc1ccc(NC(=O)c2ccnc(C(F)F)c2)cc1-c1nc2c(c(N3CCOCC3)n1)S(=O)(=O)CC2` [Example 856, 2-(difluoromethyl)-N-(4-methyl-3-(4-morpholino-5,5-dioxido-6,7-dihydrothieno[3,2-d]pyrimidin-2-yl)phenyl)isonicotinamide], the IC50 was 1 nM. Still for that read-out and setting: the value for `Cc1ncc(NC(=O)c2ccnc(C(C)(F)F)c2)cc1-c1cc(N2CCOCC2)c(S(C)(=O)=O)nn1` [Example 920, 2-(1,1-difluoroethyl)-N-(6-methyl-5-(6-(methylsulfonyl)-5-morpholinopyridazin-3-yl)pyridin-3-yl)isonicotinamide] was 1.99 nM; that for `Cc1ccc(NC(=O)c2ccnc(C(C)(F)F)c2)cc1-c1cc(N2CCOCC2)c(S(C)(=O)=O)nn1` [Example 929, 2-(1,1-difluoroethyl)-N-(4-methyl-3-(6-(methylsulfonyl)-5-morpholinopyridazin-3-yl)phenyl)isonicotinamide] was 0.33 nM. On the same count and under the same terms, the result for `Cc1ncc(NC(=O)c2ccnc(C(F)(F)F)c2)cc1-c1cc(NCCO)nc(N2CCOC[C@H]2C)c1` [Example 1140, (R)—N-(2′-((2-hydroxyethyl)amino)-2-methyl-6′-(3-methylmorpholino)-[3,4′-bipyridin]-5-yl)-2-(trifluoromethyl)isonicotinamide] reads 2.89 nM; that for `Cc1ccc(NC(=O)c2ccnc(C(C)(C)C#N)c2)cc1-c1cc(N2CCOCC2)nc(N2CC(O)C2)c1` [Example 1059, 2-(2-cyanopropan-2-yl)-N-(3-(2-(3-hydroxyazetidin-1-yl)-6-morpholinopyridin-4-yl)-4-methylphenyl)isonicotinamide], 0.85 nM. With `Cc1ncc(NC(=O)c2cccc(C(F)F)c2)cc1-c1cc(NCCO)nc(N2CCOCC2)c1` [Example 1038, 3-(difluoromethyl)-N-(2′-((2-hydroxyethyl)amino)-2-methyl-6′-morpholino-[3,4′-bipyridin]-5-yl)benzamide], the IC50 amounted to 0.45 nM. Consider `Cc1ccc(NC(=O)c2cccc(S(C)(=O)=O)c2)cc1-c1cc(N2CCOCC2)nc(N2CC(O)C2)c1` [Example 1096, N-(3-(2-(3-hydroxyazetidin-1-yl)-6-morpholinopyridin-4-yl)-4-methylphenyl)-3-(methylsulfonyl)benzamide], for which the IC50 was determined as 0.45 nM.

Still in this assay, the particulars now being: Table 2; AlphaScreen, 1 hour reaction; read-out: c-Raf FL IC-50.
`CCOc1ncc(-c2cc(NC(=O)c3ccnc(C(C)(C)C#N)c3)cnc2C)cc1N1CCOCC1` [Example 239, 2-(2-cyanopropan-2-yl)-N-(6′-ethoxy-2-methyl-5′-morpholino-[3,3′-bipyridin]-5-yl)isonicotinamide]: the IC50 was determined as 2.1 nM. For `Cc1ccc(NC(=O)c2ccnc(C(C)(C)O)c2)cc1-c1cnc(OC2CCOCC2)c(N2CCOCC2)c1` [Example 277, 2-(2-hydroxypropan-2-yl)-N-(4-methyl-3-(5-morpholino-6-((tetrahydro-2H-pyran-4-yl)oxy)pyridin-3-yl)phenyl)isonicotinamide], the IC50 was 0.5 nM. As to `CCOc1ncc(-c2cc(NC(=O)c3cnnc(C(F)(F)F)c3)cnc2C)cc1N1C2CCC1COC2` [Example 282, N-(5′-(3-oxa-8-azabicyclo[3.2.1]octan-8-yl)-6′-ethoxy-2-methyl-[3,3′-bipyridin]-5-yl)-6-(trifluoromethyl)pyridazine-4-carboxamide], the IC50 stood at 17.8 nM. The same measure, in the same setting: the value for `Cc1ncc(NC(=O)c2cccc(C(F)(F)F)c2)cc1-c1cnc(OC2COC2)c(N2CCOCC2)c1` [Example 315] was 0.3 nM; that for `CCOc1ncc(-c2cc(NC(=O)c3cnnc(C(C)(C)C#N)c3)cnc2C)cc1N1CCOCC1` [Example 287, 6-(2-cyanopropan-2-yl)-N-(6′-ethoxy-2-methyl-5′-morpholino-[3,3′-bipyridin]-5-yl)pyridazine-4-carboxamide] was 4 nM.

The values above are taken from patent publication US9694016B2 (Novartis AG, priority 2013, dated 2017).
